Results published in patent publication EP4831176A1, “BICYCLIC FUSED HETEROAROMATIC RING DERIVATIVE, AND PHARMACEUTICAL COMPOSITION AND USE THEREOF” (dated 2026).

Amino acid sequences for entries named in this document (tags omitted).
UniProt O75530, whole entry: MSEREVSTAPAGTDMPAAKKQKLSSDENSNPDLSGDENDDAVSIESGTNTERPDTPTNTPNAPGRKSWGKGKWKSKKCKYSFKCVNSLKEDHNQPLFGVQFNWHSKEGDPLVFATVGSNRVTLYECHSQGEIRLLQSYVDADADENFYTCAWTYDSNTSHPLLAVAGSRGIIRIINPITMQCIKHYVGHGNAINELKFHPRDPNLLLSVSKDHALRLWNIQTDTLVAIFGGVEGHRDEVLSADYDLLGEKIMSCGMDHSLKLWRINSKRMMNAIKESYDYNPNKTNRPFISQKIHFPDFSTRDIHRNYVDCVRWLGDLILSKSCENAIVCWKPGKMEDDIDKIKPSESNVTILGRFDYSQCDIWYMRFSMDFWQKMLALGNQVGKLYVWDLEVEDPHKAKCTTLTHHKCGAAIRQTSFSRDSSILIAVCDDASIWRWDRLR

How the values were obtained:
EED protein = EED protein (Homo sapiens, UniProt O75530); assay: EED protein degradation in Karpas-422 cells, In-cell western (ICW); settings: 18 hours incubation
Description: In this experiment, In-cell western (ICW) method was used to quantitatively analyze the EED protein expression level in Karpas-422 cells to detect the degradation activity of the compounds on the target protein. The specific steps were as follows: • 1. Karpas-422 cells were purchased from Nanjing Cobioer (Catalog No. CBP60629), subcultured and maintained in logarithmic growth state using RPMI-1640 complete medium (containing 10% v/v fetal bovine serum) according to the supplier's recommended conditions. […] One day before cell seeding, a 384-well plate was coated with 30 µL of coating buffer (phosphate buffered saline containing 30 µg/mL poly-D-lysine) at room temperature for 2 hours. The coating solution was then discarded, and the plate was washed once with 90 µL of phosphate buffered saline, which was then discarded. The plate was allowed to air dry naturally in a clean bench, wrapped around the edges with Parafilm to prevent moisture, and stored in a 4°C refrigerator until use. • 3. Before cell seeding, cells were collected in a centrifuge tube, centrifuged at 250 rcf for 3 minutes, and the culture medium was discarded. The cells were resuspended in fresh complete medium, and 20 µL of the cell suspension was taken to calculate the cell concentration using a Countstar cell counter. After adjusting the density, cells were seeded into the prepared coated plate at 15,000 cells/45 µL and pre-incubated in a 37°C, 5% CO2 incubator for 4 hours. • 4. The negative and positive control groups were treated with 5 µL of control solution (serum-free medium containing 1% v/v DMSO). Compound gradient dilutions were prepared using the control solution, and 5 µL of the dilutions were added to the corresponding culture wells. The final concentration of DMSO in the test was 0.1% v/v. Subsequently, the plate was incubated in a 37°C, 5% CO2 incubator for 18 hours. • 5. The culture plate was removed, and cells were fixed by directly adding 10 µL of fixative solution (phosphate buffered saline containing 3% v/v glutaraldehyde) to the cells and incubating at room temperature for 30 minutes. The liquid was discarded. Subsequently, cells were treated with 30 µL of permeabilization staining solution (phosphate buffered saline containing 0.1% v/v Triton X-100 and 20 µg/mL Hoechst 33342) at room temperature for 30 minutes. The permeabilization solution was discarded, and the fluorescence value (excitation at 360 nm, emission at 460 nm) was read on a microplate reader. • 6. 50 µL of repair solution (50 mM citric acid buffer) was added to all wells, and the plate was incubated at 70°C for 2 hours on a constant temperature incubation shaker. The microplate was then removed, equilibrated to room temperature, and the liquid was discarded. • 7. A sufficient amount of antibody dilution buffer (Tris Buffered Saline-Tween solution containing 1% w/v bovine serum albumin) was prepared and stored in a 4°C refrigerator until use. • 8. Primary antibody dilution (EED antibody diluted 1:1000 with antibody dilution buffer) was prepared. 30 µL of antibody dilution buffer without antibody was added to the negative control group. 30 µL of the primary antibody dilution was added to the cells in the other groups, and the plate was incubated overnight at 4°C. • 9. The primary antibody dilution was discarded. The plate was washed 3 times with 90 µL of Tris Buffered Saline-Tween solution, and the wash solution was discarded. Secondary antibody dilution (HRP-linked antibody diluted 1:500 with antibody dilution buffer) was prepared, and 30 µL was added to the cells. The plate was incubated at room temperature for 2 hours. • 10. The secondary antibody dilution was discarded. The plate was washed 3 times with 90 µL of Tris Buffered Saline-Tween solution, and the wash solution was discarded. 30 µL of TMB substrate solution was added, and the plate was incubated at room temperature in the dark for 15 minutes. Then, 30 µL of stop solution (2 M sulfuric acid) was added to terminate the reaction. […]

Pfeiffer cells = assay: Proliferation inhibition of Pfeiffer tumor cells, Cell Titer-Glo; settings: read-out: CTG IC50, 144 hours incubation
Description: In this experiment, Cell Titer-Glo reagent was used to quantitatively analyze the proliferation activity of Pfeiffer cells to detect the inhibitory ability of the compounds on tumor cell proliferation. The specific steps were as follows: • 1. Pfeiffer cells were purchased from Nanjing Cobioer (purchased from ATCC, Catalog No. #CRL2632), subcultured and maintained in logarithmic growth state using RPMI-1640 complete medium (containing 10% v/v fetal bovine serum) according to the supplier's recommended conditions. […] Before cell seeding, cells were collected in a centrifuge tube, centrifuged at 250 rcf for 3 minutes, and the culture medium was discarded. The cells were resuspended in fresh complete medium, and 20 µL of the cell suspension was taken to calculate the cell concentration using a Countstar cell counter. After adjusting the density, cells were seeded into a 384-well plate at 2,000 cells/45 µL and pre-incubated in a 37°C, 5% CO2 incubator for 4 hours. • 3. The negative and positive control groups were treated with 5 µL of control solution (non-complete medium containing 1% v/v DMSO). Compound gradient dilutions were prepared using non-complete medium, and 5 µL of the dilutions were added to the corresponding culture wells. The final concentration of DMSO in the test was 0.1% v/v. Subsequently, the plate was incubated in a 37°C, 5% CO2 incubator for 144 hours. • 4. 40 µL of Cell Titer-Glo reagent was added directly to the cell culture, and the plate was incubated at room temperature in the dark for 30 minutes. The luminescence value was then read on a plate reader, and the results were used to analyze the cell proliferation ratio and compound activity. • 5. The signal value of the negative control group was set as Bottom, and the signal value of the positive control group was set as Top. The compound concentration value (logarithm) was the X-axis, and the luminescence reading at the corresponding concentration was the Y-axis, with HillSlope as the slope factor. A four-parameter logistic model (4PL logistic model) was used for fitting, and the calculation method was as follows:Y = Bottom + (Top - Bottom) / (1 + 10^((Log IC50 - X) × HillSlope))
After fitting, the IC50 value of the compound was calculated, and the proliferation inhibitory activity of the compound was compared based on the IC50 value.

Row | Dmax (EED protein) | IC50 (Pfeiffer cells) | Compound
1 | 23% | 84 nM | Cc1cc(CN2CCC(N3CCN(c4ccc(NC5CCC(=O)NC5=O)cc4F)CC3)C(F)(F)C2)ccc1-c1cnc(NCc2c(F)ccc3c2CCO3)n2cnnc12 (stereo not drawn)
2 | 51% | 15 nM | O=C1CCC(N2C(=O)c3ccc(N4CCC(CN5CCC(n6cc(-c7cnc(NCc8c(F)ccc9c8CCO9)n8cnc(Cl)c78)cn6)CC5)CC4)cc3C2=O)C(=O)N1 (stereo not drawn)
3 | 66% | 1.7 nM | Cn1nc(C2CCC(=O)NC2=O)c2ccc(N3CCC(CN4CCC(c5ccc(-c6cnc(NCc7c(F)ccc8c7CCO8)n7nnnc67)cc5)CC4)CC3)cc21 (stereo not drawn)
4 | 55% | 0.4 nM | Cn1nc(C2CCC(=O)NC2=O)c2cnc(N3CCC(CN4CCC(n5cc(-c6cnc(NCc7c(F)ccc8c7CCO8)n7cnc(Cl)c67)cn5)CC4)CC3)cc21 (stereo not drawn)
5 | 56% | 0.15 nM | Cn1c(=O)n(C2CCC(=O)NC2=O)c2ccc(N3CCC(CN4CCC(n5cnc(-c6cnc(NCc7c(F)ccc8c7CCO8)n7cnc(Cl)c67)n5)CC4)CC3)cc21 (stereo not drawn)
6 | 58% | 1.7 nM | Cc1ncn2c(NCc3c(F)ccc4c3CCO4)ncc(-c3ccc(C4CCN(CC5CCN(c6ccc7c(C8CCC(=O)NC8=O)nn(C)c7c6)CC5)CC4)cc3)c12 (stereo not drawn)
7 | 70% | 1 nM | Cc1cc(C2CCN(CC3CCN(c4ccc5c(C6CCC(=O)NC6=O)nn(C)c5c4)CC3)CC2)ccc1-c1cnc(NCc2c(F)ccc3c2CCO3)n2cnnc12 (stereo not drawn)
8 | 61% | 28 nM | Cc1nc(C2CCN(CC3CCN(c4ccc5c(c4)n(C)c(=O)n5C4CCC(=O)NC4=O)CC3)CC2)ccc1-c1cnc(NCc2c(F)ccc3c2CCO3)n(C)c1=O (stereo not drawn)
9 | 59% | 2 nM | Cn1nc(C2CCN(CC3CCN(c4ccc5c(C6CCC(=O)NC6=O)nn(C)c5c4)CC3)CC2)cc1-c1cnc(NCc2c(F)ccc3c2CCO3)n2cnc(Cl)c12 (stereo not drawn)
10 | 54% | 0.11 nM | Cn1nc(C2CCC(=O)NC2=O)c2ccc(N3CCC(CN4CCC(n5cnc(-c6cnc(NCc7c(F)ccc8c7CCO8)n7cnc(F)c67)n5)CC4)CC3)cc21 (stereo not drawn)
11 | 36% | 29 nM | Cn1c(=O)n(C2CCC(=O)NC2=O)c2ccc(N3CCC(NC(=O)c4ccc(-c5cnc(NCc6c(F)ccc7c6CCO7)n6cnc(Cl)c56)cn4)CC3)cc21 (stereo not drawn)
12 | 70% | 0.5 nM | Cn1nc(C2CCC(=O)NC2=O)c2ccc(N3CCC(CN4CCC(c5ccc(-c6cnc(NCc7c(F)ccc8c7CCO8)n7cnc(Cl)c67)cn5)CC4)CC3)cc21 (stereo not drawn)
13 | 48% | 1.3 nM | Cn1nc(C2CCC(=O)NC2=O)c2ccc(N3CCC(C(=O)N4CCC(n5cc(-c6cnc(NCc7c(F)ccc8c7CCO8)n7cnc(Cl)c67)cn5)CC4)CC3)cc21 (stereo not drawn)
14 | 41% | 8 nM | Cn1nc(N2CCC(=O)NC2=O)c2ccc(N3CCC(CN4CCC(n5cc(-c6cnc(NCc7c(F)ccc8c7CCO8)n7cnc(Cl)c67)cn5)CC4)CC3)cc21
15 | 59% | 0.07 nM | Cn1nc(C2CCC(=O)NC2=O)c2ccc(N3CC4(CC(CN5CCC(c6ccc(-c7cnc(NCc8c(F)ccc9c8CCO9)n8cnnc78)cc6)CC5)C4)C3)cc21 (stereo not drawn)
16 | 33% | 136 nM | Cn1nc(C2CCC(=O)NC2=O)c2ccc(N3CCC(CN4CCC(n5ccc(-c6cnc(NCc7c(F)ccc8c7CCO8)n7cnc(Cl)c67)n5)CC4)CC3)cc21 (stereo not drawn)
17 | 75% | 5 nM | Cn1nc(C2CCC(=O)NC2=O)c2ccc(N3CCC(CN4CCC(c5ncc(-c6cnc(NCc7c(F)ccc8c7CCO8)n7cnnc67)cn5)CC4)CC3)cc21 (stereo not drawn)
18 | 47% | 8 nM | Cc1nc(C2CN(CC3CCN(c4ccc5c(C6CCC(=O)NC6=O)nn(C)c5c4)CC3)C2)ccc1-c1cnc(NCc2c(F)ccc3c2CCO3)n2cnc(Cl)c12 (stereo not drawn)
